Values quoted from earlier work in US6703045B2, “Composition and method for maintaining blood glucose level” (Council of Scientific & Industrial Research, priority 2001, dated 2004).

Tested on: human serum proteins

- binding to human serum proteins: extensively bound
Structure (SMILES): Cc1cnc(C(=O)NCCc2ccc(S(=O)(=O)NC(=O)NC3CCCCC3)cc2)cn1 [Glipizide, 1-cyclohexyl-3-[[p-[2-(5-methylpyrazinecarboxamido)ethyl]phenyl]sulfonyl] urea]
